Measured values published in publication PMC7961048, “Hierarchized phosphotarget binding by the seven human 14-3-3 isoforms” (Nature Communications, 2021).

Target: T1, 14-3-3γ (Homo sapiens, UniProt P61981)
T1 construct: full-length human 14-3-3 constructs with an N-terminal MBP fusion were used; made in house; host or cells: E. coli BL21(DE3)
T1 sequence (P61981 1-247): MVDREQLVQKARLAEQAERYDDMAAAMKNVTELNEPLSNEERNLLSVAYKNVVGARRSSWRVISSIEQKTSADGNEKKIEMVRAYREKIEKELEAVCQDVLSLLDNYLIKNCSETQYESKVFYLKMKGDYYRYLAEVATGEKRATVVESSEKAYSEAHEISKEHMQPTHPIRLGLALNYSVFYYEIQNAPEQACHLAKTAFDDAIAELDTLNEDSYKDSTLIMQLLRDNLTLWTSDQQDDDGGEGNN
Test: biochemical
Type: binding
Procedure: FP was measured with a PHERAstar (BMG Labtech, Offenburg, Germany) microplate reader by using 485 ± 20 and 528 ± 20 nm band-pass filters (for excitation and emission, respectively). In direct FP measurements, a dilution series of the 14-3-3 protein was prepared in 96-well plates (96-well skirted PCR plate, 4ti-0740, 4titude, Wotton, UK) in a 20 mM HEPES pH 7.5 buffer containing 150 mM NaCl, 0.5 mM TCEP, 0.01% Tween 20, 50 nM fluorescently labeled fpB6 peptide, and 100 μM FSC, if indicated. The volume of the dilution series was 40 μl, which was later divided into three technical replicates of 10 μl upon transferring to 384-well micro-plates (low binding microplate, 384 well, E18063G5, Greiner Bio-One, Kremsmünster, Austria). In total, polarization of the probe was measured at eight different protein concentrations (whereas one contained no protein and corresponded to the free peptide). In competitive FP measurements, the same buffer was supplemented with the protein to achieve a complex formation of 60–80%, based on the direct titration. Then, this mixture was used for creating a dilution series of the unlabeled competitor (i.e., the studied peptides) and the measurement was carried out identically as in the direct experiment.
All FP experiments were done in triplicates. Analysis of FP experiments were carried out using ProFit, an in-house developed, Python-based fitting program. […]

CC(C)[C@H](NC(=O)[C@H](CCC(=O)O)NC(=O)[C@@H](NC(=O)[C@H](CCC(=O)O)NC(=O)[C@H](CCCNC(=N)N)NC(=O)[C@H](CCCNC(=N)N)NC(=O)[C@@H](NC(=O)[C@@H]1CCCN1C(=O)[C@H](CCCCN)NC(=O)[C@H](CO)NC(=O)CCC(=O)NCCCOCCOCCOCCCNC(=O)CCCC[C@@H]1SC[C@@H]2NC(=O)N[C@@H]21)[C@@H](C)O)[C@@H](C)OP(=O)(O)O)C(=O)O [pHPV35E6]
Kd: 228 ± 61 µM
